The text below walks through data of PMC2365632.

The chains behind the UniProt entries cited, without tags or fusion partners.
UniProt P31390, whole entry: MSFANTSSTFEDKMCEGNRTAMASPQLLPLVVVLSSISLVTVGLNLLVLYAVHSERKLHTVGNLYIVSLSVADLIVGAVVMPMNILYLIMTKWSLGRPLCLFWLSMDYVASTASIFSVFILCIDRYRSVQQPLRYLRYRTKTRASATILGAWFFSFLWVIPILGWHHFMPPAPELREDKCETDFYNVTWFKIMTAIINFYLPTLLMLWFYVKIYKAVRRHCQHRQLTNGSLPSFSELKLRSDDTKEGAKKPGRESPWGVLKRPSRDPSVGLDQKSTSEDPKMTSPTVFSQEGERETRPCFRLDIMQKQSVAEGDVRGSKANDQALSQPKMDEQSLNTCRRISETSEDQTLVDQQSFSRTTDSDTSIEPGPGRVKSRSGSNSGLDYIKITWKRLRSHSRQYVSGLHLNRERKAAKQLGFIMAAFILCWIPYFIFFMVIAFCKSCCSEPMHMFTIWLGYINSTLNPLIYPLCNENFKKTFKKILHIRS

The test has as its target T1, histamine H1 receptor (Rattus norvegicus, UniProt P31390).
T1 construct: gene Hrh1
Conditions: aorta.

Compound `COc1ccc(CN(CCN(C)C)c2ccccn2)cc1` [pyrilamine] displayed a Kb of 9.33 ± 0.34 pA2.
